The text below walks through data of patent publication US5055459A, “Selective elimination of malignant cells from bone marrow by bis (acyloxy) propylphosphoramidates” (Board of Regents, The University of Texas, priority 1989, dated 1991).

The subject of data set [1] is L1210 lymphatic leukemia cells. The data set is described as follows: In vitro cytotoxicity to L1210 lymphatic leukemia cells, 72 hr, MTT (Table 2). The data set is classed as cell-based, murine. The conditions noted are these: concentration that kills 50% of the cells; 72 hr at 37° C.; concentration range 0.5-20 microgram/ml.
Data set [2] deals with extracts from L1210 cell-lines. The conditions noted are these: cited from earlier work.

Read-outs that look alike come from different tables or passages of the source.

Turning to `COP(=O)(OCCC(OC(C)=O)OC(C)=O)N(CCCl)CCCl` (stereo not shown), the ED50 in data set [1] was 13.0 microgram/ml.
On to `O=P1(N(CCCl)CCCl)NC(O)CCO1` (stereo not shown), for which the conversion to carboxyphosphamide entry in data set [2] (extracts from drug resistant L1210 cell-line) is reported as “extensively converted to carboxyphosphamide”; in data set [2] (extracts from drug-sensitive cell line) it was “negligible levels of carboxyphosphamide”.
The compound `CCOP(=O)(OCCC(OC(C)=O)OC(C)=O)N(CCCl)CCCl` (stereo not shown) had an ED50 in data set [1] of 13.6 microgram/ml.
